The assay has as its target T1, p38 MAP Kinase a (Homo sapiens, UniProt Q16539).
T1 construct: purchased Upstate (Dundee UK)
Nature of the assay: p38 MAP Kinase activity, radiometric filter-binding assay (Upstate). As to conditions: IC50 range; read-out: Inhibitor activity versus p38 MAPKa. It is filed as biochemical. On the procedure:
The ability of compounds to inhibit p38 MAP a Kinase activity was measured in an assay performed by Upstate (Dundee UK). In a final reaction volume of 25 μL, p38 MAP Kinase a (5-10 mU) is incubated with 25 mM Tris pH 7.5, 0.002 mMEGTA, 0.33 mg/mL myelin basic protein, 10 mM MgAcetate and [g-33P-ATP] (specific activity approx. 500 cpm/pmol, concentration as required). The reaction is initiated by the addition of the MgATP mix. After incubation for 40 minutes at room temperature, the reaction is stopped by the addition of 5 μL of a 3% phosphoric acid solution. 10 μL of the reaction is then spotted onto a P30 filtermat and washed three times for 5 minutes in 75 mM phosphoric acid and once in methanol prior to drying and scintillation counting.
Duplicate data points are generated from a 1/3 log dilution series of a stock solution in DMSO. Nine dilutions steps are made from a top concentration of 10 μM, and a ‘no compound’ blank is included. The standard radiometric filter-binding assay is performed at an ATP concentration at, or close to, the Km. Data from scintillation counts are collected and subjected to free-fit analysis by Prism software. From the curve generated, the concentration giving 50% inhibition is determined and reported.

By UniProt entry, the sequences of proteins in these tests, tags left out.
UniProt Q16539, whole entry: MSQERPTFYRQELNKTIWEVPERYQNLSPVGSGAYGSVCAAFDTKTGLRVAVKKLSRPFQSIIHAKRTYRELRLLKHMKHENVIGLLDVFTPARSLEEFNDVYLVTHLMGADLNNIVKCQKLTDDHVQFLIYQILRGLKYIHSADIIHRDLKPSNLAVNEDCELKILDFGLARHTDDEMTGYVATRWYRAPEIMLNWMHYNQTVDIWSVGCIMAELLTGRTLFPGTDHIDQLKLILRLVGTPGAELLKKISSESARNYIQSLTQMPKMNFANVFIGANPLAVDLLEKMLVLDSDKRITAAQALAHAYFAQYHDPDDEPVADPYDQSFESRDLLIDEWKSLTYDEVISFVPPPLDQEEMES

Bounds are passed on as bounds.

With `CC(C)(C)OC(=O)[C@@H](NCCc1cc(F)c(-n2c(N)c(C(=O)c3ccc(F)cc3F)ccc2=O)c(F)c1)c1ccccc1` [Example 35, tert-butyl (2S)-[(2-{4-[6-amino-5-(2,4-difluorobenzoyl)-2-oxopyridin-1(2H)-yl]-3,5-difluorophenyl}ethyl)amino](phenyl)acetate], the IC50 is less than 0.1 µM.
